Measured values reported in patent US6534482B1, “Expression vectors for stimulating an immune response and methods of using the same” (priority 1998, dated 2003).

Tested on: CTL response

CSCC[C@H](NC(=O)[C@@H](N)Cc1ccc(O)cc1)C(=O)N[C@@H](CC(=O)O)C(=O)N[C@@H](CC(=O)O)C(=O)N[C@H](C(=O)N[C@H](C(=O)N[C@@H](CC(C)C)C(=O)NCC(=O)N[C@H](C(=O)O)C(C)C)C(C)C)C(C)C
immunogenicity of the peptide administered in IFA (in words) (HLA transgenic mice): significant levels of CTL activity | Immunogenicity In Vivo (IFA): CTL Response (Geo. Mean ΔLU) (geometric mean of positive cultures, peptide with T helper peptide in IFA): 8.2 (2.3) ΔLU | Immunogenicity In Vivo (IFA): No. CTL-Positive Cultures (peptide 50 μg/mouse with T helper peptide in IFA s.c., positive/total cultures): 6/6
